This is an account of results in PMC9654333, “AmyP53, a Therapeutic Peptide Candidate for the Treatment of Alzheimer’s and Parkinson’s Disease: Safety, Stability, Pharmacokinetics Parameters and Nose-to Brain Delivery” (International Journal of Molecular Sciences, 2022).

The test system of this series is bEnd.3 murine endothelial cells (bEnd.3/C6 co-cultures). Kind of series: Transport through in vitro reconstituted blood–brain barrier (two-compartment chamber). Type of series: in vitro ADME, mouse. Conditions: bEnd.3/C6 model, donor basal to acceptor apical compartment. Here is the method: An in vitro model of the blood–brain barrier was reconstituted with bEnd.3 murine endothelial cells obtained from the American Type Culture Collection (ATCC, Manassas, VA, USA) ref. bEnd.3 [BEND3] (ATCC CRL-2299). These cells were cultured in chambers with two compartments separated by a filter with a porosity of 0.4 µm (Corning-Transwell, Dominique Dutscher, Bernolsheim, France). The cells were seeded at a density of 50,000 cells per individual filter and cultured in a growth medium containing 10% fetal calf serum. After an initial spreading step, the bEnd.3 cells colonized the entire surface available on the filter, thus reconstituting a functional endothelium. At this stage, the cells established tight junctions preventing the passage of molecules and ions. In order to improve the differentiation of bEnd.3 cells, we also set up two coculture systems: [bEnd.3 + astrocytes (CTX cells)] and [bEnd.3 + glioma (C6 cells)]. […] The impermeability of each of these cellular barriers was assessed by transendothelial resistance measurements with a Voltmeter-Ohmmeter Millicell-ERS (Merck-Millipore, Burlington, MA, USA). The tested peptides (or bovine serum albumin) were injected in the lower compartment and their concentration in the upper compartment was analyzed as a function of time by spectrophotometry. […]

Turning to “bovine serum albumin [BSA, reference compound]”, the “Transendothelial transport through the blood–brain barrier” value is “did not cross the blood–brain barrier at all”.
